Assay results as given in paper PMC5386136.

Chains of the proteins cited; added tags and fusions are not shown. Lines headed by an entry give the natural chain unless they say otherwise; changes in a name come on top.
UniProt Q9WV48: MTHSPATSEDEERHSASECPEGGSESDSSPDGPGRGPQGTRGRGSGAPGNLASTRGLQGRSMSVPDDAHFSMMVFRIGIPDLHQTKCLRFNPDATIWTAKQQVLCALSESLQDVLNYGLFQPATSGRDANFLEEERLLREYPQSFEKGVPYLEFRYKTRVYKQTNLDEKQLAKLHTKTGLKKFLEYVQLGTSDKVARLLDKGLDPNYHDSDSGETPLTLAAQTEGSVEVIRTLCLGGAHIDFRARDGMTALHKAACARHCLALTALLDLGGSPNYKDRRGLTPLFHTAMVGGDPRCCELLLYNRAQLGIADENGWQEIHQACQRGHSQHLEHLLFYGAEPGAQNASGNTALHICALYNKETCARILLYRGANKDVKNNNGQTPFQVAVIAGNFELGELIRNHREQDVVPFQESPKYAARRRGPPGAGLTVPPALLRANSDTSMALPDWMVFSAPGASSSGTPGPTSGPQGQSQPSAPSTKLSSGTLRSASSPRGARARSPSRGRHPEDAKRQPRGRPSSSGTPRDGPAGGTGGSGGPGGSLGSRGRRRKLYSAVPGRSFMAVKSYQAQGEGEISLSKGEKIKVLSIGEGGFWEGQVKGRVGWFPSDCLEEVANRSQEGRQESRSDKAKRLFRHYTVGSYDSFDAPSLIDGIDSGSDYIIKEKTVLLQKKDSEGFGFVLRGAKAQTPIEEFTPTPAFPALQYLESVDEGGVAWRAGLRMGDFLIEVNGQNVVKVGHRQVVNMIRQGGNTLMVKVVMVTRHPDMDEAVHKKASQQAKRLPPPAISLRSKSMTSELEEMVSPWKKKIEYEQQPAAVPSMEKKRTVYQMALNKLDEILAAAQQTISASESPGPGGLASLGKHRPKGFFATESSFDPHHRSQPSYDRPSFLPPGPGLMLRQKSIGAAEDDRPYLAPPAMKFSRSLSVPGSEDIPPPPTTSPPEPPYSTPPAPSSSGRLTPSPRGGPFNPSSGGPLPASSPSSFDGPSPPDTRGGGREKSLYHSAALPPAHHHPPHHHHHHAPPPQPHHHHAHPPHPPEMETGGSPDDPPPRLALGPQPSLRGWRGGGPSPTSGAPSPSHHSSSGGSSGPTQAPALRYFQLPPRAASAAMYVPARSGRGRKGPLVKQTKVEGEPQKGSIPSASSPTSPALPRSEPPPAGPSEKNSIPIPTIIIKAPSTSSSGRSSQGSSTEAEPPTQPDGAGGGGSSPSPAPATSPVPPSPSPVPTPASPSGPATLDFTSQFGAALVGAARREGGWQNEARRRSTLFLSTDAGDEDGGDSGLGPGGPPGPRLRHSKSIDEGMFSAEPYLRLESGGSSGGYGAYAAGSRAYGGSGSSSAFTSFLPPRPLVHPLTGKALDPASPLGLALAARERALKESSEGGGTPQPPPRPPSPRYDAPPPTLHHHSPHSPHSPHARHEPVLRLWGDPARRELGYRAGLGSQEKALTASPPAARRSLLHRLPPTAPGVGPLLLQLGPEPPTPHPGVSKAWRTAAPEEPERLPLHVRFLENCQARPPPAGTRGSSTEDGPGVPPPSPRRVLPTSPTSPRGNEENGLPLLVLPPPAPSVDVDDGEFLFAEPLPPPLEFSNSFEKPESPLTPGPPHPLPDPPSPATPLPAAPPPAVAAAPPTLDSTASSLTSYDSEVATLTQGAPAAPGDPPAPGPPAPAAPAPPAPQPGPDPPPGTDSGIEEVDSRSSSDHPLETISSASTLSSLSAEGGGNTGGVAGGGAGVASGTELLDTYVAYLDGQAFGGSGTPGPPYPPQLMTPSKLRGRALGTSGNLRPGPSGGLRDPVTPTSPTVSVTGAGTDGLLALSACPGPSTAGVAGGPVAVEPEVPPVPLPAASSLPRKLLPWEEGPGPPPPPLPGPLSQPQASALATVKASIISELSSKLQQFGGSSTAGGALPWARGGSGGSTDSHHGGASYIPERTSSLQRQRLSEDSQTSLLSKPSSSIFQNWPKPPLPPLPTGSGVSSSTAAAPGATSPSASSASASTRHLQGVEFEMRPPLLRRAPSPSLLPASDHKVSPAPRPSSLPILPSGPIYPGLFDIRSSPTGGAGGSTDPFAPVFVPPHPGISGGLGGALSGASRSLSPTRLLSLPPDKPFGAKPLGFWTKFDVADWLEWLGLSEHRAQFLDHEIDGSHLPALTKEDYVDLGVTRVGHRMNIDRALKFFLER

Experiments:
SHANK1 SPN (rat) = SHANK1 SPN (rat) (UniProt Q9WV48); test: ITC
[1] = molecular target: SHANK3 SPN-ARR (residues 1-348) (rat); test: ITC

Work on “Human H-Ras (recombinant) (from UniProt P01112 1-189) (natural protein)” yielded a Kd (SHANK1 SPN (rat)) of 5.9 µM and a Kd [1] of 3.3 µM.
